From patent publication EP0889878B1 (Merck Frosst Canada & Co., priority 1996, dated 1997)

By UniProt entry, the sequences of proteins in these tests, tags left out. Residues count along the entry.
UniProt P23219, 24-599: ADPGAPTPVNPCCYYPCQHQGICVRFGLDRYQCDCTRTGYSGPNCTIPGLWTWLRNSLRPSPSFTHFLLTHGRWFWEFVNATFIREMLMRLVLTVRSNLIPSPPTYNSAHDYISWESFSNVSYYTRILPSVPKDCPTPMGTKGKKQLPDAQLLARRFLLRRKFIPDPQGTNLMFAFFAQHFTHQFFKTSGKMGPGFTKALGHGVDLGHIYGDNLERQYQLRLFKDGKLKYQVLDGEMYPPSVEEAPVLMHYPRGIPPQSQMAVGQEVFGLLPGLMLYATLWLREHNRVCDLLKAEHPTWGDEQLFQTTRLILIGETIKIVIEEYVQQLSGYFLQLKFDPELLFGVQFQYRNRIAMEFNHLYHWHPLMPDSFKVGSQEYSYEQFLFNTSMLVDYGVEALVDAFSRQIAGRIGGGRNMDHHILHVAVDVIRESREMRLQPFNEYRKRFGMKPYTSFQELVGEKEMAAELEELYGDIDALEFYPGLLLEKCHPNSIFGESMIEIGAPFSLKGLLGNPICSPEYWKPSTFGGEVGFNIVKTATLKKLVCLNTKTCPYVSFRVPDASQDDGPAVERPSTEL

Molecular target: T1, COX-1 (Homo sapiens, UniProt P23219)
T1 construct: human U-937 cells (which specifically express COX-1); endogenous in cells; host or cells: human U-937 cells
Experiment: Whole cell cyclooxygenase assay in U-937 cells (COX-1, inhibition of PGE2 production)
Assay type: cell-based

IC50: 0.52 µM
Compound: CC1(C)C(=O)C(c2ccccc2)=C1c1ccc(S(C)(=O)=O)cc1 [Example 16, 4,4-Dimethyl-3-(4-methylsulfonylphenyl)-2-phenyl-2-cyclobuten-1-one]
